Amino acid sequences for entries named in this document (tags omitted). A change or cut given only in a name is not applied to a line headed by its entry.
UniProt P05107, whole entry: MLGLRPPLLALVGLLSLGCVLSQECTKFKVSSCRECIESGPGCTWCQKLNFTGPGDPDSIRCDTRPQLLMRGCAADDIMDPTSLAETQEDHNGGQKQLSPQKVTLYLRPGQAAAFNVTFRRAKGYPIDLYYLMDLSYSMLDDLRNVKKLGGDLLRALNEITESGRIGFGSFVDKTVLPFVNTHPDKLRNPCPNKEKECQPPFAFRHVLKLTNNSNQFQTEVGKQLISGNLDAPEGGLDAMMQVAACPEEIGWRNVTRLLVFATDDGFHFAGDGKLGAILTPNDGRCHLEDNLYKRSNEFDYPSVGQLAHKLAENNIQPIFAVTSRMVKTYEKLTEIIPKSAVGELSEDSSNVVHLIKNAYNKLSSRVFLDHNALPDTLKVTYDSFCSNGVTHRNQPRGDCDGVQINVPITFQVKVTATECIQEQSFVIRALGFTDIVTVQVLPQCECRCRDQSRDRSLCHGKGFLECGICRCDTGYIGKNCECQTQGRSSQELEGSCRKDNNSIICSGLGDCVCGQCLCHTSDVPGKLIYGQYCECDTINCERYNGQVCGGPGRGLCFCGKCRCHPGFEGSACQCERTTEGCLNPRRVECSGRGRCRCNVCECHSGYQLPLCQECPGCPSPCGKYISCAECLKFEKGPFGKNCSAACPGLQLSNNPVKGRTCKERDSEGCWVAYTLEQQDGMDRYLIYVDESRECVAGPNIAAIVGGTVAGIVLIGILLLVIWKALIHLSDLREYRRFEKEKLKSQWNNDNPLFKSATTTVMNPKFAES
UniProt P20701: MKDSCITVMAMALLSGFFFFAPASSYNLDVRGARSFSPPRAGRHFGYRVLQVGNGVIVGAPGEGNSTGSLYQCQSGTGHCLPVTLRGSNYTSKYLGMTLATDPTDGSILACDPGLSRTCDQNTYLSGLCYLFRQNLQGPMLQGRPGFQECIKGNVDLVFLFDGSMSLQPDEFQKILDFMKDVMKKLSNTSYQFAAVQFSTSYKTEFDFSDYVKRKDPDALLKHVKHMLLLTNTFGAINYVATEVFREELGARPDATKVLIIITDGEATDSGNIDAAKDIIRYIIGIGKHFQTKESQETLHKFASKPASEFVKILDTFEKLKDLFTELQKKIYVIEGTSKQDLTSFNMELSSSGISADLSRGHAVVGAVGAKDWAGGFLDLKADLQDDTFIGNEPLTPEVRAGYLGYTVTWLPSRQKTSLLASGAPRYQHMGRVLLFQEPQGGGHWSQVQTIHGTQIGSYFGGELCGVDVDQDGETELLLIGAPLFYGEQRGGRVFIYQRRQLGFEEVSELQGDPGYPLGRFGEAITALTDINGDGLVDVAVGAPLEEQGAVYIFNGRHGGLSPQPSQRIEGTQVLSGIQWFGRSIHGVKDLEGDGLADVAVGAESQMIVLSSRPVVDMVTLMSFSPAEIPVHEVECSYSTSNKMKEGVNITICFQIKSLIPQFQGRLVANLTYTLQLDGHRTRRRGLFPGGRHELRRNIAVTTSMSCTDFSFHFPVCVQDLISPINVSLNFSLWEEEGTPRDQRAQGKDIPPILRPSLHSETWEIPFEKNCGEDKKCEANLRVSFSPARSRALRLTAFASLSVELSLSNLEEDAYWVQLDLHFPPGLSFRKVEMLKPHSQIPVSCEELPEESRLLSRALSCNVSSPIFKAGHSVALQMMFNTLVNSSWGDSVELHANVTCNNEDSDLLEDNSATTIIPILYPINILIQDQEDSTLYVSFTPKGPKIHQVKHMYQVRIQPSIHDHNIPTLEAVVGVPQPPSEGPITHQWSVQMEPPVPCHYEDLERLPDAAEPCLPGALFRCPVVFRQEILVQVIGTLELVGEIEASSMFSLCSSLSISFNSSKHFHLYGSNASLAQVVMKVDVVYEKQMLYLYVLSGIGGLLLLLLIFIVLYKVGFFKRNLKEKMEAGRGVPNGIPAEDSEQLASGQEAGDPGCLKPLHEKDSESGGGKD

In ChEMBL document CHEMBL1133477, “Discovery of novel p-arylthio cinnamides as antagonists of leukocyte function-associated antigen-1/intracellular adhesion molecule-1 interaction. 1. Identification of an additional binding pocket based on an anilino diaryl sulfide lead” (J Med Chem, 2000):

Target: Intercellular adhesion molecule (ICAM-1), Integrin alpha-L/beta-2 (Homo sapiens, UniProt P05107+P20701)
Experiment: Ability to block the interaction between integrin LFA-1 and its adhesion partner ICAM-1 in a time-resolved fluorescent LFA-1/ICAM-1 biochemical interaction assay
Type: protein-complex assay

- IC50: 44 nM
SMILES: CC(=O)N1CCN(C(=O)/C=C/c2ccc(Sc3ccccc3C(C)C)c([N+](=O)[O-])c2)CC1 [A-286982]
